Test results published in article PMC3306180 (Journal of Medicinal Chemistry, 2012).

How the values were obtained:
HL-60 (neutrophil) cells = conditions: concentrations up to 10 μM
[1] = system: CRL-8155 (lymphocytic) cells; conditions: concentrations up to 10 μM

## CCOc1ccc2cc(-c3nn(C(C)C)c4ncnc(N)c34)ccc2c1.Cl [Compound 15a]
HL-60 (neutrophil) cells
  inhibition of cell growth, HL-60: no inhibition of cell growth
[1]
  inhibition of cell growth, CRL-8155: no inhibition of cell growth
